Results published in PubChem BioAssay AID602252 (Broad Institute, 2012).
Only a part is listed here, and it is no random draw. The source made the active and inactive calls.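 How the source made its calls: active means mean inhibition of at least 30% with at least half of replicates also reaching 30%; inconclusive means no clear call, values can overlap the other calls; inactive means the rest.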

The molecules below were run against Golgi-associated PDZ and coiled-coil motif-containing protein (Homo sapiens) (UniProt Q9HD26) (assay: untagged CAL PDZ binding inhibitors, primary screen, biochemical, fluorescence polarization, HTS (AID 602252;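 further: 0% = DMSO neutral control and 100% = excess unlabeled competitor peptide PRC23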)). Conditions: purified CAL PDZ, TMR-peptide fluorescence polarization, 1 h; at 24.9 µM; stronger effect = higher value.

SMILES	inhibition
O=C(O)COc1ccc([As](=O)(O)O)cc1[N+](=O)[O-]	inactive: -2.1%
Nc1ccccc1[As](=O)(O)c1ccccc1	inactive: -4.47%
CS(=O)(=O)c1cc([N+](=O)[O-])c2no[n+]([O-])c2c1	inactive: -0.617%
O=P(Nc1nccs1)(c1ccccc1)c1nc2ccccc2s1 (configuration not stated)	inactive: -0.376%
O=P(Nc1nccs1)(Oc1ccccc1)Oc1ccccc1	inactive: 5.17%
CCOP1(=S)c2c(C)nn(CCC#N)c2N=C(c2ccccc2F)N1C (configuration not stated)	inactive: -1.93%
CN(C(=O)Cc1ccc(Cl)c(Cl)c1)[C@H]1CC[C@@]2(CCCO2)C[C@@H]1N1CCCC1	inactive: -5.61%
O=[N+]([O-])c1ccc2c(c1)nnn2O	inactive: 5.89%
CN(C(=O)Cc1ccccc1)[C@@H]1CC[C@]2(CCCO2)C[C@H]1N1CCCC1	inactive: 2.34%
CCOP1(=S)c2c(C)nn(CCC#N)c2N=C(c2ccc(F)cc2)N1C (configuration not stated)	inactive: -2.6%
N#CCCN(C(=O)COC(=O)C(O)(c1ccccc1)c1ccccc1)c1ccc(F)cc1	inactive: -2.08%
NC(=O)Nc1ccc([As](=O)(O)O)cc1	inactive: -2.11%
O=[As](O)(c1cccc(O)c1)c1cccc(O)c1	inactive: -1.35%
Cc1cccc(OCC(=O)OC2CN3CCC2CC3)c1 (configuration not stated)	inactive: 0.33%
COc1cc(C(=O)NCC2(N3CCOCC3)CCCCC2)cc(Cl)c1OC(C)C	inactive: 1.16%
O=[As](O)(O)c1cccnc1	inactive: -4.02%
CCOP(=O)(Nc1cccc2ccccc12)OCC	inactive: -0.742%
COc1cc(C2NCCC3(OCCO3)C2(C)C)cc(OC)c1OC (configuration not stated)	inactive: -1.38%
CCCOP(=S)(Nc1nc(N)cc(=O)[nH]1)OCCC	inactive: 5.89%
Cc1ccc(NCCc2c([N+](=O)[O-])cc([N+](=O)[O-])cc2[N+](=O)[O-])cc1	inactive: -2.58%
Nc1cccc2c([As](=O)(O)O)cccc12	inactive: -5.91%
CC(C)(C)C(=O)NC(Sc1ncccn1)C(Cl)(Cl)Cl (configuration not stated)	inactive: -2.37%
Clc1n[nH]nc1-c1nn[nH][15n]1	inactive: 0.448%
CCOP(=O)(Nc1ccc(C)cn1)OCC	inactive: 11.5%
CCOP(=O)(NC(=NC(C)c1ccccc1)NC(C)c1ccccc1)OCC (configuration not stated)	inactive: -16.8%
CCC1=CC2Cc3nc4ccc(Cl)cc4c(N)c3C(C1)C2 (configuration not stated)	inactive: -11.6%

SMILES	inhibition
O=P1(Nc2ccccn2)COc2ccccc2OC1	inactive: 3.51%
CC1(CBr)Cn2c(nc3ccccc3c2=O)S1 (configuration not stated)	inactive: -0.565%
CN(C(=O)Cc1ccc(Cl)c(Cl)c1)[C@@H]1CCCC[C@H]1N1CCCC1	inactive: -2.85%
COc1ccccc1CNC(=O)COC(=O)C(O)(c1ccccc1)c1ccccc1	inactive: 0.518%
CCCC1OP(=O)(Nc2ccccc2)OCC1CC (configuration not stated)	inactive: -2.47%
O=C(/C=C/c1ccccc1)OC1CN2CCC1CC2 (configuration not stated)	inactive: -4.31%
CN(C)C1(CNC(=O)c2ccc(S(C)(=O)=O)cc2)CCCCC1	inactive: 1.12%
Cc1ccc(C(=O)OC2CN3CCC2CC3)cc1 (configuration not stated)	inactive: -1.78%
CC1CCC(C(C)C)C(OP(=O)(Nc2ccccn2)c2ccccc2)C1 (configuration not stated)	inactive: -0.537%
Cc1nn(-c2ccccc2)c2c1P(=O)(N1CCOCC1)N(C)C(c1ccccc1)=N2 (configuration not stated)	inactive: 1.17%
NS(=O)(=O)c1cccc(NC(=O)COC(=O)C(O)(c2ccccc2)c2ccccc2)c1	inactive: -1.27%
O=P1(Nc2ccc(Br)cn2)COc2ccccc2OC1	inactive: 0.022%
Cc1ccc(OCC(=O)OC2CN3CCC2CC3)cc1 (configuration not stated)	inactive: -6.97%
O=[As](O)(c1cccs1)c1cccs1	inactive: -3.14%
Nc1cccc([As](=O)(O)c2ccccc2)c1	inactive: 2.14%
O=P1(Nc2ncccn2)COc2ccccc2OC1	inactive: -0.27%
Cc1cc(SC(NC(=O)c2ccccc2)C(Cl)(Cl)Cl)nc(C(C)C)n1 (configuration not stated)	inactive: 4.79%
CCCCOc1ccc(C(=O)NCC2(N3CCCCC3)CCCCC2)cc1OC	inactive: -6.11%
CC1CCNP(=O)(N(CCCl)CCCl)O1 (configuration not stated)	inactive: 2.81%
CCOC(=O)Nc1ccc([As](=O)(O)O)c(O)c1	inactive: -4.11%
O=[N+]([O-])c1ccc(Nc2ccc(Oc3ccc([N+](=O)[O-])cc3[N+](=O)[O-])cc2)c([N+](=O)[O-])c1	active: 69.1%
Cc1cc(SC(NC=O)C(Cl)(Cl)Cl)ncn1 (configuration not stated)	inactive: -2.27%
O=P(Nc1ccccn1)(c1cccc2ccccc12)c1cccc2ccccc12	inactive: 0.754%
CCOC(=O)Nc1cccc([As](=O)(O)O)c1	inactive: -3.07%
O=C(Nc1ccncc1[N+](=O)[O-])c1ccc([N+](=O)[O-])cc1[N+](=O)[O-]	inactive: 6.39%
O=C(COc1ccccc1)OC1CN2CCC1CC2 (configuration not stated)	inactive: -1.21%

SMILES	inhibition
COP1(=S)c2c(C)nn(CCC#N)c2N=C(c2ccc(F)cc2)N1C (configuration not stated)	inactive: -1.31%
CCC(C)N(CC(C)C)C(=S)SC(NC(C)=O)C(Cl)(Cl)Cl (configuration not stated)	inactive: -1.64%
O=C(OC1CN2CCC1CC2)c1cccc([N+](=O)[O-])c1 (configuration not stated)	inactive: -2.1%
COc1cc(I)ccc1[As](=O)(O)O	inactive: -3.13%
COc1ccc2nc(NP(=O)(c3ccccc3)c3ccccc3)sc2c1	inactive: 1.12%
O=P1(N(CCCl)CCCl)OCCCN1CCCl (configuration not stated)	inactive: -2.81%
O=P1(N(CCCl)CCCl)Nc2ccccc2N1	inactive: 1.96%
Cc1cc(=O)[nH]c(N[N+](=O)[O-])n1	inactive: -5.35%
O=C(OC1CN2CCC1CC2)C12CC3CC(CC(C3)C1)C2 (configuration not stated)	inactive: -6.54%
Cc1c2c(nc3ccccc13)SC(C(Cl)Cl)C2 (configuration not stated)	inactive: 1.93%
COc1ccc(N/C(=N/P(=O)(N2CCOCC2)N2CCOCC2)N2CCOCC2)cc1	active: 50.7%
O=[N+]([O-])c1cc(Oc2ccc([N+](=O)[O-])cc2C(F)(F)F)cc([N+](=O)[O-])c1	inactive: 1.24%
Cc1ccc2nc3c(c(C)c2c1)CC(C(Cl)Cl)S3 (configuration not stated)	inactive: 2.95%
Cc1ccc(OP(=O)(Nc2ccc([N+](=O)[O-])cn2)Oc2ccc(C)cc2)cc1	inactive: 1.46%
COc1cc(C(=O)NCC2(N3CCOCC3)CCCCC2)ccc1OCC(C)C	inactive: -2.32%
O=[N+]([O-])c1ccc(-c2cc([N+](=O)[O-])c(O)c([N+](=O)[O-])c2)cc1	inactive: 7.42%
C[As](=O)(O)c1cccc(C(=O)O)c1	inactive: 5.43%
O=[As](O)(c1ccc(O)cc1)c1ccccc1O	inactive: -2.84%
O=[N+]([O-])c1cc([N+](=O)[O-])c(-c2ccn[nH]2)s1	inactive: -2.67%
CCN(CC)C(=S)SC(NC=O)C(Cl)(Cl)Cl (configuration not stated)	inactive: -1.35%
CC(C)NC(=O)NP(=O)(Oc1ccccc1)Oc1ccccc1	inactive: 4.01%
CC(C)c1ccc(OP(=O)(Nc2ccccn2)Oc2ccccc2F)cc1 (configuration not stated)	inactive: -3.98%
COC(=O)C1(C)COP(=O)(N2CCCCCC2)OC1 (configuration not stated)	inactive: 0.769%
ClCCSc1nnc(-c2cccnc2)o1	inactive: -1.09%
CN(C(=O)Cc1ccc(Cl)c(Cl)c1)[C@H]1CCCC[C@@H]1N1CCCC1	inactive: -1.47%
Cc1ccc(NP(=O)(Oc2ccccc2F)Oc2ccccc2F)nc1	inactive: -1.33%

SMILES	inhibition
CCOP(=O)(Nc1ccccc1)OCC	inactive: -2.62%
Cc1cc(SC(NC(=O)c2ccc(F)cc2)C(Cl)(Cl)Cl)ncn1 (configuration not stated)	inactive: -0.585%
CCCC1OP(N)(=O)OCC1CC (configuration not stated)	inactive: -5.34%
O=C(O)c1ccccc1[As](=O)(O)O	inactive: -4.12%
CC(=O)Nc1ccc([As](=O)(O)O)cc1	inactive: -2.29%
O=P(Nc1nc2ccc(Cl)cc2s1)(c1ccccc1)c1ccccc1	inactive: -0.72%
Nc1cccc2ccc([As](=O)(O)O)cc12	inactive: -5.84%
COc1ccccc1OP(=O)(Nc1ccc(C)cn1)Oc1ccccc1OC	inactive: -3.35%
Clc1ccc(Cl)c(NC2=NCC(CBr)S2)c1 (configuration not stated)	inactive: 0.025%
CN1CCCC(OC(=O)C(c2ccccc2)c2ccccc2)C1 (configuration not stated)	inactive: -6.12%
NC(=O)c1cc([N+](=O)[O-])cc([N+](=O)[O-])c1N	inactive: -5.49%
Cc1ccc(N/C(=N/P(=O)(N2CCOCC2)N2CCOCC2)N2CCOCC2)cc1	inactive: 1.14%
CN(C(=O)Cc1ccc(Cl)c(Cl)c1)[C@H]1CCCC[C@H]1N1CCCC1	inactive: 0.349%
CC(C)CC(=O)NC(Sc1ccc(Cl)cc1)C(Cl)(Cl)Cl (configuration not stated)	inactive: -3.69%
Nc1cc(N)c2nonc2c1[N+](=O)[O-]	inactive: -1.03%
Oc1ccccc1CNc1ccccn1	inactive: -0.535%
CC(=O)N1C2C3N(C(C)=O)C1C1N(C(C)=O)C(C(N1C(C)=O)N3C(C)=O)N2C(C)=O	inactive: 0.118%
O=[N+]([O-])c1cccc2n[nH]nc12	inactive: 2.37%
CCc1nc2c(n1)c1c(non1O)c1c2no[n+]1[O-]	inactive: -1.57%
Cc1ccc(NP(=O)(Oc2ccccc2)Oc2ccccc2)nc1	inactive: 6.53%
COc1ccc(C2=NCC(CBr)S2)cc1 (configuration not stated)	inactive: -6.84%
CN(C)C(=O)OCCc1n(C)cc[n+]1C	inactive: -0.394%
CC(C)=N/N=C(\N)N[N+](=O)[O-]	inactive: -1.76%
CC1CCN(C(=O)Oc2c(Cl)cc(Cl)c3cccnc23)CC1	inactive: -8.03%
